The subject of this assay is HIV-1 IIIB. The assay can be described thus: MAGI-CXCR4 HIV-1 IIIB antiviral assay (β-galactosidase reporter). The note with it: MAGI-CXCR4 cells. An excerpt: Example 2: MAGI-CXCR4 HIV-1 IIIB Assay Procedure
MAGI-CXC4 cells (obtained from the NIH AIDS Research and Reference Reagent Program) are passed into T-75 flasks prior to use in the antiviral assay. MAGI-CXCR4 cells are derived from HeLa-CD4-LTR-β-gal cells. The cells have been engineered to express high levels of CD4 and […] and contain one copy of the HIV-1 LTR promoter driving expression of the β-galactosidase gene upon HIV-1 Tat transactivation. On the day preceding the assay, the cells are plated at 1.0×10^4 per well and incubated at 37° C. overnight. Total cell and viability quantification is performed using a hemacytometer and trypan blue exclusion. […]
Compounds are evaluated at one or two concentrations (e.g., for initial screening) or in dose-response at six concentrations (triplicate wells/concentration). […] The cultures are incubated for 48 hours or 6 days (depending on compound or client requirements) after which antiviral efficacy is measured as the inhibition of β-galactosidase reporter expression and cytotoxicity is monitored by MTS staining.
A chemiluminescent endpoint is used to determine the extent of β-galactosidase expression as a measure of HIV-1 infection of the cells. […] Thus there is a direct relationship between the level of HIV-1 infection and the level of β-galactosidase detected in the cells. […]

Each structure is given as a SMILES string. Where two headings read alike, the source gives them in different places.

For orientation: IC50 means the concentration at which inhibition is half-maximal. On to `NCCCCN(CC1CN(Cc2ccccc2)CCN1)C1CCCc2cccnc21` (centres unmarked) [Compound 8], for which the IC50 (read-out: HIV IC50, further testing) came out at 150 nM and the IC50 (read-out: MAGI HIV IIIB IC50) is 150 nM.

The record behind these values is patent US10016408B2, “Chemokine CXCR4 receptor modulators and uses related thereto” (EMORY UNIVERSITY, priority 2010, dated 2018).
